The values below are quoted from earlier work in patent US20090123376A1, “THERAPEUTIC AGENTS WITH DECREASED TOXICITY” (priority 2004, published 2009).

For this data set the following is noted: patients; cited from earlier work.

In the case of ibritumomab tiuxetan [ZEVALIN®], the cytopenias on administration result is “severe and prolonged cytopenias in most patients”.
